## AlphaSeq binding of Ab-91 heavy chain variants to a spike HR2 peptide

All variants were tested on one target, the spike HR2 peptide PDVDLGDISGINAS (SARS-CoV-2).

Each scFv is VL, a (GGGGS)3 linker, VH, as in the parent Ab-91, and differs from it in the CDRs of the heavy chain only.
VL: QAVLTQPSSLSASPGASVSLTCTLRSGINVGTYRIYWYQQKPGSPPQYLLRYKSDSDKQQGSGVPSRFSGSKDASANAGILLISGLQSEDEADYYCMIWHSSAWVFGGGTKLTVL
VH: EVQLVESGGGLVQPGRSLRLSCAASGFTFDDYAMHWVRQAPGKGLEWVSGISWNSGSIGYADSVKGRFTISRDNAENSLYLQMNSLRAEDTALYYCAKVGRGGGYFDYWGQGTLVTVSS

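The parent was found by panning a naive human phage display library on the peptide. Variants in AAYL51 differ from the parent at up to three CDR positions; double and triple changes were sampled at random. The assay is AlphaSeq: two haploid yeast populations carry antibody and antigen on their surface. The frequency of each diploid, read from paired DNA barcodes, reflects how well the two displayed proteins bind. Each replicate has its own calibration line, from reference interactions of the BCL2 family. Each pool was mated in three replicate cultures.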

Substitutions are numbered in sequence along the VH above, starting at 1 (not Kabat).
Every variant below is changed at D30 of the VH (sequential numbering).
Values are apparent Kd, the geometric mean of the replicates that gave a signal; lower means stronger binding.
A pair that was not seen in any replicate is written "no signal"; this usually means weak binding, but a binder can also be missed.

D30Y/M34D/S55W: 18 µM (1 of 3 replicates).
D30W/G102V/F106A: 780 nM (3 of 3 replicates).
D30I/G50M/G104Q: 330 µM (1 of 3 replicates).
D30K/H35L/R101L: no signal (0 of 3 replicates).
D30Y/G56H/G104F: 120 µM (1 of 3 replicates).
D30R/Y108E: 4.6 nM (3 of 3 replicates).
F27E/D30I/G56A: no signal (0 of 3 replicates).
T28H/D30R/A33V: 4.8 µM (1 of 3 replicates).
D30H/G50T/S52Q: 20 µM (3 of 3 replicates).
D30W/K65L/D107T: 55 µM (3 of 3 replicates).
D30Y/Y32V/H35N: no signal (0 of 3 replicates).
D30R/Y60H/G102W: 13 nM (3 of 3 replicates).
T28M/D30T/F106P: no signal (0 of 3 replicates).
D30A/M34K/V99H: no signal (0 of 3 replicates).
D30E/G100Q/Y105G: 34 µM (3 of 3 replicates).
T28V/D30M/G102E: 47 nM (3 of 3 replicates).
D30H: 3.8 nM (3 of 3 replicates).
D30H/I58H/G104T: no signal (0 of 3 replicates).
F27L/D30F/Y60F: no signal (0 of 3 replicates).
D30E/I51W: 55 µM (1 of 3 replicates).
D30S/I51K/K65G: 4.1 µM (1 of 3 replicates).
D30R/S52Y/A61P: no signal (0 of 3 replicates).
D30Q/H35R: 270 µM (3 of 3 replicates).
F29D/D30V/G103W: no signal (0 of 3 replicates).
D30G/G56Y/R101Y: 68 nM (3 of 3 replicates).
D30K/N54Y/S63R: 6.1 µM (3 of 3 replicates).
F29H/D30Q/F106T: 500 µM (3 of 3 replicates).
G26A/D30T/G56W: 96 µM (2 of 3 replicates).
D30G: 5.1 µM (1 of 3 replicates).
D30P/Y32E/G56H: 3.7 µM (1 of 3 replicates).
D30V/G104F: 30 nM (3 of 3 replicates).
D30P/Y105G: 13 µM (2 of 3 replicates).
F29I/D30T/G103Q: 1.6 µM (2 of 3 replicates).
D30S/V99R/F106W: no signal (0 of 3 replicates).
F27A/D30H/A61R: 23 µM (2 of 3 replicates).
D30Q/S55E/G100D: 230 µM (3 of 3 replicates).
D30Y/V99P/R101W: 110 µM (3 of 3 replicates).
D30P/I51V/W53F: 40 nM (3 of 3 replicates).
D30W/K65W/Y105N: no signal (0 of 3 replicates).
D30F/Y32E/Y108N: no signal (0 of 3 replicates).
D30H/G102C: 3.3 µM (3 of 3 replicates).
D30I/Y32D/H35F: 2.4 mM (2 of 3 replicates).
D30G/G59Q/Y60L: 110 µM (2 of 3 replicates).
D30H/G100V/F106V: 790 nM (3 of 3 replicates).
D30M/M34C/I58N: 140 µM (1 of 3 replicates).
D30T/Y105T/Y108F: 95 nM (3 of 3 replicates).
D30E/S52P/G59F: 58 µM (1 of 3 replicates).
D30K/Y32W/I58N: 160 nM (3 of 3 replicates).

Picked from the list: the 8 lowest averages where every replicate gave a value.

changes	Kd	detected
D30H	3.8 nM	3/3
D30R/Y108E	4.6 nM	3/3
D30R/Y60H/G102W	13 nM	3/3
D30V/G104F	30 nM	3/3
D30P/I51V/W53F	40 nM	3/3
T28V/D30M/G102E	47 nM	3/3
D30G/G56Y/R101Y	68 nM	3/3
D30T/Y105T/Y108F	95 nM	3/3

As a blank, each scFv also met three strains without target: over library AAYL51, 21% of these pairings were detected, typically at 34 µM and seldom below 1.8 µM.
In this assay the parent's reference entry averaged 72 nM; its copy inside this library read 7.5 nM.

Reference: Engelhart et al. 2022, doi:10.1038/s41597-022-01779-4. File: FLAb, binding data.